Data taken from article PMC12102759 (Protein Science : A Publication of the Protein Society, 2025).

Each substance was assayed on AP2M1 MU.
Format: binding, human

Q: “VSDIDYVPLKSATA(averaged) A14N (VSDIDYVPLKSATN)” was tested. Which “PSSM value of the substitution, averaged over the two overlapping peptides” value (shortened to “PSSM value … over the two overlapping peptides”) did it give?
A: The value was 0.001075.

Q: Which “PSSM value … over the two overlapping peptides” value does the source give for “VSDIDYVPLKSATA(averaged) A14P (VSDIDYVPLKSATP)” here?
A: Its value is 0.001907.

Q: With “VSDIDYVPLKSATA(averaged) A14Q (VSDIDYVPLKSATQ)” as the substance, how does the “PSSM value … over the two overlapping peptides” value read?
A: Its value is 0.444.

Q: How did the “PSSM value … over the two overlapping peptides” value turn out when “VSDIDYVPLKSATA(averaged) A14R (VSDIDYVPLKSATR)” was run?
A: Its value is 0.1311.

Q: Which “PSSM value … over the two overlapping peptides” value does the source give for “VSDIDYVPLKSATA(averaged) A14S (VSDIDYVPLKSATS)” here?
A: The value was 0.005066.

Q: Which “PSSM value … over the two overlapping peptides” value does the source give for “VSDIDYVPLKSATA(averaged) A14T (VSDIDYVPLKSATT)” here?
A: Its value is 0.3301.

Q: How did the “PSSM value … over the two overlapping peptides” value turn out when “VSDIDYVPLKSATA(averaged) A14V (VSDIDYVPLKSATV)” was run?
A: The value was 0.01963.

Q: Which “PSSM value … over the two overlapping peptides” value does the source give for “VSDIDYVPLKSATA(averaged) A14W (VSDIDYVPLKSATW)” here?
A: The value was 0.

Q: With “VSDIDYVPLKSATA(averaged) A14Y (VSDIDYVPLKSATY)” as the substance, how does the “PSSM value … over the two overlapping peptides” value read?
A: The value was 5.157e-5.

Q: With “VSDIDYVPLKSATA(averaged) D3A (VSAIDYVPLKSATA)” as the substance, how does the “PSSM value … over the two overlapping peptides” value read?
A: The value was 0.01881.

Q: With VSDIDYVPLKSATA(averaged) D3D as the substance, how does the “PSSM value … over the two overlapping peptides” value read?
A: The value was 0.04227.

Q: “VSDIDYVPLKSATA(averaged) D3E (VSEIDYVPLKSATA)” was tested. Which “PSSM value … over the two overlapping peptides” value did it give?
A: Its value is 0.0155.

Q: Which “PSSM value … over the two overlapping peptides” value does the source give for “VSDIDYVPLKSATA(averaged) D3F (VSFIDYVPLKSATA)” here?
A: Its value is 0.07115.

Q: For “VSDIDYVPLKSATA(averaged) D3G (VSGIDYVPLKSATA)”, which “PSSM value … over the two overlapping peptides” value is on record?
A: The value was 0.003884.

Q: Which “PSSM value … over the two overlapping peptides” value does the source give for “VSDIDYVPLKSATA(averaged) D3H (VSHIDYVPLKSATA)” here?
A: The value was 0.

Q: “VSDIDYVPLKSATA(averaged) D3I (VSIIDYVPLKSATA)” was tested. Which “PSSM value … over the two overlapping peptides” value did it give?
A: The value was 0.

Q: How did the “PSSM value … over the two overlapping peptides” value turn out when “VSDIDYVPLKSATA(averaged) D3K (VSKIDYVPLKSATA)” was run?
A: The value was 0.02954.

Q: With “VSDIDYVPLKSATA(averaged) D3L (VSLIDYVPLKSATA)” as the substance, how does the “PSSM value … over the two overlapping peptides” value read?
A: Its value is 0.07101.

Q: For “VSDIDYVPLKSATA(averaged) D3M (VSMIDYVPLKSATA)”, which “PSSM value … over the two overlapping peptides” value is on record?
A: The value was 0.004661.

Q: Which “PSSM value … over the two overlapping peptides” value does the source give for “VSDIDYVPLKSATA(averaged) D3N (VSNIDYVPLKSATA)” here?
A: Its value is 0.09903.

Q: “VSDIDYVPLKSATA(averaged) D3P (VSPIDYVPLKSATA)” was tested. Which “PSSM value … over the two overlapping peptides” value did it give?
A: The value was 0.4228.

Q: “VSDIDYVPLKSATA(averaged) D3Q (VSQIDYVPLKSATA)” was tested. Which “PSSM value … over the two overlapping peptides” value did it give?
A: The value was 0.001253.

Q: “VSDIDYVPLKSATA(averaged) D3R (VSRIDYVPLKSATA)” was tested. Which “PSSM value … over the two overlapping peptides” value did it give?
A: The value was 0.

Q: With “VSDIDYVPLKSATA(averaged) D3S (VSSIDYVPLKSATA)” as the substance, how does the “PSSM value … over the two overlapping peptides” value read?
A: The value was 0.

Q: With “VSDIDYVPLKSATA(averaged) D3T (VSTIDYVPLKSATA)” as the substance, how does the “PSSM value … over the two overlapping peptides” value read?
A: The value was 0.00358.

Q: Which “PSSM value … over the two overlapping peptides” value does the source give for “VSDIDYVPLKSATA(averaged) D3V (VSVIDYVPLKSATA)” here?
A: The value was 0.

Q: With “VSDIDYVPLKSATA(averaged) D3W (VSWIDYVPLKSATA)” as the substance, how does the “PSSM value … over the two overlapping peptides” value read?
A: The value was 0.2116.

Q: With “VSDIDYVPLKSATA(averaged) D3Y (VSYIDYVPLKSATA)” as the substance, how does the “PSSM value … over the two overlapping peptides” value read?
A: The value was 0.004856.

Q: For “VSDIDYVPLKSATA(averaged) D5A (VSDIAYVPLKSATA)”, which “PSSM value … over the two overlapping peptides” value is on record?
A: Its value is 0.0009534.

Q: Which “PSSM value … over the two overlapping peptides” value does the source give for VSDIDYVPLKSATA(averaged) D5D here?
A: Its value is 0.002722.

Q: “VSDIDYVPLKSATA(averaged) D5E (VSDIEYVPLKSATA)” was tested. Which “PSSM value … over the two overlapping peptides” value did it give?
A: Its value is 0.559.

Q: For “VSDIDYVPLKSATA(averaged) D5F (VSDIFYVPLKSATA)”, which “PSSM value … over the two overlapping peptides” value is on record?
A: Its value is 0.

Q: How did the “PSSM value … over the two overlapping peptides” value turn out when “VSDIDYVPLKSATA(averaged) D5G (VSDIGYVPLKSATA)” was run?
A: Its value is 0.000447.

Q: How did the “PSSM value … over the two overlapping peptides” value turn out when “VSDIDYVPLKSATA(averaged) D5H (VSDIHYVPLKSATA)” was run?
A: Its value is 0.008717.

Q: Which “PSSM value … over the two overlapping peptides” value does the source give for “VSDIDYVPLKSATA(averaged) D5I (VSDIIYVPLKSATA)” here?
A: The value was 0.01463.

Q: Which “PSSM value … over the two overlapping peptides” value does the source give for “VSDIDYVPLKSATA(averaged) D5K (VSDIKYVPLKSATA)” here?
A: Its value is 0.02269.

Q: “VSDIDYVPLKSATA(averaged) D5L (VSDILYVPLKSATA)” was tested. Which “PSSM value … over the two overlapping peptides” value did it give?
A: Its value is 0.0002977.

Q: “VSDIDYVPLKSATA(averaged) D5M (VSDIMYVPLKSATA)” was tested. Which “PSSM value … over the two overlapping peptides” value did it give?
A: The value was 0.1259.

Q: “VSDIDYVPLKSATA(averaged) D5N (VSDINYVPLKSATA)” was tested. Which “PSSM value … over the two overlapping peptides” value did it give?
A: Its value is 0.03259.

Q: For “VSDIDYVPLKSATA(averaged) D5P (VSDIPYVPLKSATA)”, which “PSSM value … over the two overlapping peptides” value is on record?
A: The value was 0.00109.

Q: “VSDIDYVPLKSATA(averaged) D5Q (VSDIQYVPLKSATA)” was tested. Which “PSSM value … over the two overlapping peptides” value did it give?
A: The value was 0.002892.

Q: For “VSDIDYVPLKSATA(averaged) D5R (VSDIRYVPLKSATA)”, which “PSSM value … over the two overlapping peptides” value is on record?
A: The value was 8.698e-5.

Q: Which “PSSM value … over the two overlapping peptides” value does the source give for “VSDIDYVPLKSATA(averaged) D5S (VSDISYVPLKSATA)” here?
A: The value was 0.0009385.

Q: Which “PSSM value … over the two overlapping peptides” value does the source give for “VSDIDYVPLKSATA(averaged) D5T (VSDITYVPLKSATA)” here?
A: Its value is 0.1629.

Q: With “VSDIDYVPLKSATA(averaged) D5V (VSDIVYVPLKSATA)” as the substance, how does the “PSSM value … over the two overlapping peptides” value read?
A: The value was 0.00146.

Q: With “VSDIDYVPLKSATA(averaged) D5W (VSDIWYVPLKSATA)” as the substance, how does the “PSSM value … over the two overlapping peptides” value read?
A: Its value is 0.000367.

Q: Which “PSSM value … over the two overlapping peptides” value does the source give for “VSDIDYVPLKSATA(averaged) D5Y (VSDIYYVPLKSATA)” here?
A: Its value is 0.06229.

Q: Which “PSSM value … over the two overlapping peptides” value does the source give for “VSDIDYVPLKSATA(averaged) I4A (VSDADYVPLKSATA)” here?
A: Its value is 2.437e-5.

Q: With “VSDIDYVPLKSATA(averaged) I4D (VSDDDYVPLKSATA)” as the substance, how does the “PSSM value … over the two overlapping peptides” value read?
A: The value was 0.0001019.

Q: “VSDIDYVPLKSATA(averaged) I4E (VSDEDYVPLKSATA)” was tested. Which “PSSM value … over the two overlapping peptides” value did it give?
A: The value was 0.

Q: “VSDIDYVPLKSATA(averaged) I4F (VSDFDYVPLKSATA)” was tested. Which “PSSM value … over the two overlapping peptides” value did it give?
A: The value was 0.0003902.

Q: With “VSDIDYVPLKSATA(averaged) I4G (VSDGDYVPLKSATA)” as the substance, how does the “PSSM value … over the two overlapping peptides” value read?
A: Its value is 0.

Q: With “VSDIDYVPLKSATA(averaged) I4H (VSDHDYVPLKSATA)” as the substance, how does the “PSSM value … over the two overlapping peptides” value read?
A: Its value is 0.00125.

Q: With VSDIDYVPLKSATA(averaged) I4I as the substance, how does the “PSSM value … over the two overlapping peptides” value read?
A: Its value is 0.0009213.

Q: Which “PSSM value … over the two overlapping peptides” value does the source give for “VSDIDYVPLKSATA(averaged) I4K (VSDKDYVPLKSATA)” here?
A: The value was 0.

Q: For “VSDIDYVPLKSATA(averaged) I4L (VSDLDYVPLKSATA)”, which “PSSM value … over the two overlapping peptides” value is on record?
A: The value was 0.001167.

Q: Which “PSSM value … over the two overlapping peptides” value does the source give for “VSDIDYVPLKSATA(averaged) I4M (VSDMDYVPLKSATA)” here?
A: The value was 0.0004977.

Q: Which “PSSM value … over the two overlapping peptides” value does the source give for “VSDIDYVPLKSATA(averaged) I4N (VSDNDYVPLKSATA)” here?
A: Its value is 5.668e-5.

Q: “VSDIDYVPLKSATA(averaged) I4P (VSDPDYVPLKSATA)” was tested. Which “PSSM value … over the two overlapping peptides” value did it give?
A: Its value is 2.437e-5.
